What was measured:
GIP receptor (GIPR) = target: T1, GIP receptor (GIPR) (Homo sapiens, UniProt P48546); experiment: cAMP Hunter agonist assay (DiscoveRx HitHunter cAMP XS+), GIPR cells; assay type: cell-based; settings: for Emax: read-out: Max Response; for Curve Bottom / Curve Top / Hill: cAMP, Agonist, GIPR; for Curve Bottom / Curve Top: % Activity scale; for Hill: dose curve fit
T1 sequence (P48546 22-466): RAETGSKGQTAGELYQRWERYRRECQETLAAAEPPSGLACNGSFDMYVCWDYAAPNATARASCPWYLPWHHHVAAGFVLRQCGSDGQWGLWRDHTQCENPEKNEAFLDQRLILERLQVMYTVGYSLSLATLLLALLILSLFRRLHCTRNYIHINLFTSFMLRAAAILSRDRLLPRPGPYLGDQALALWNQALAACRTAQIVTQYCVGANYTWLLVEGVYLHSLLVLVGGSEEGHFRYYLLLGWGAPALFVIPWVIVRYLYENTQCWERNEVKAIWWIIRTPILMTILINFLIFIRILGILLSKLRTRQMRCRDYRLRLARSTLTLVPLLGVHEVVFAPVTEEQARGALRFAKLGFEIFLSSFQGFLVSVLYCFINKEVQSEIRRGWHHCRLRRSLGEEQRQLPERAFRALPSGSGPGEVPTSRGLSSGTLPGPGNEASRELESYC
Experimental: (§1) Once it was established that the cells were healthy and growing normally, cells were passaged from flasks using cell dissociation reagent buffer and seeded into white walled clear bottom 384-well microplates for compound profiling. For profiling, cells were seeded at a density of 10,000 cells per well in a total volume of 20 μL and were allowed to adhere and recover overnight prior to compound addition. cAMP modulation was determined using the DiscoveRx HitHunter cAMP XS+ assay.
(§2) For profiling compound in agonist mode, the cells were incubated in the presence of compound at 37° C. for 30 minutes. […] After appropriate compound incubation, assay signal was generated through incubation with DiscoverX lysis cocktail according to the manufacturers standard protocol. Dose curves were plotted using GraphPad Prism or Activity Base. Percentage activity is calculated using the following formula: % Activity=100%×(mean RLU of test sample−mean RLU of vehicle control)/(mean RLU of MAX control−mean RLU of vehicle control).

The chains behind the UniProt entries cited, without tags or fusion partners. Residues count along the entry.
UniProt P43220, 24-463: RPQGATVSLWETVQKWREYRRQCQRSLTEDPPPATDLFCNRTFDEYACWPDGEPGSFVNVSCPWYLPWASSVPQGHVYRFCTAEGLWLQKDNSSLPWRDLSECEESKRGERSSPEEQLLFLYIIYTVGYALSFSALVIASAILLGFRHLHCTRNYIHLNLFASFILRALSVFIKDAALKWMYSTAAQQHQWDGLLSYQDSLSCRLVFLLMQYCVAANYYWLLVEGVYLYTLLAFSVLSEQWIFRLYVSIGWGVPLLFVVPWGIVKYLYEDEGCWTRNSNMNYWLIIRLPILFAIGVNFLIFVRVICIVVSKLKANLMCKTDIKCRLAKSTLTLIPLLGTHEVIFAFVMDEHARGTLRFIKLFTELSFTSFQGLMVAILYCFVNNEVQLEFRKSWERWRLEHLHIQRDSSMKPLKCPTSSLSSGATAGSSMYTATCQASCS

GLP-1 receptor (GLP1R) = GLP-1 receptor (GLP1R) (Homo sapiens, UniProt P43220); experiment: cAMP Hunter agonist assay (DiscoveRx HitHunter cAMP XS+), GLP1R cells; assay type: cell-based; settings: for Emax: read-out: Max Response; for Curve Bottom / Curve Top / Hill: cAMP, Agonist, GLP1R; for Curve Bottom / Curve Top: % Activity scale; for Hill: dose curve fit
Experimental: as §1, §2

[1] = Stability in human plasma; assay type: in vitro ADME
Experimental: Studies of the 2010 peptide were carried out in human plasma. All plasma was obtained from Bioreclamation and collected on sodium heparin. DMSO stocks were first prepared for the test compounds. Aliquots of the DMSO solutions were dosed into 1 mL of plasma, which had been pre-warmed to 37° C., at a final test compound concentration of 1 μM. The vials were kept in a benchtop Thermomixer® for the duration of the experiment. Aliquots (100 μL) were taken at each timepoint (0, 15, 30, 60, and 120 minutes) and added to 96-well plates which had been pre-filled with 300 μL of acetonitrile. Samples were stored at 4° C. until the end of the experiment. After the final timepoint was sampled, the plate was mixed and then centrifuged at 3,000 rpm for 10 minutes. Aliquots of the supernatant were removed, diluted 1:1 into distilled water, and analyzed by LC-MS/MS.
Below is a table of data describing the stability of compounds exposed to human plasma with aliquot of compound dissolved in DMSO solution at 37° C. The pH of the plasma solution was adjusted to 7.4 and single replicants of aliquot were taken at 0, 15, 30, 60 and 120 minutes. LC-MS/MS was used to determine the percent mass of compound remaining in solution (% remaining).

[2] = Stability in human liver microsomes
Experimental: Human liver microsomes were prepared by Absorption Systems. A reaction mixture, minus NADPH, was prepared as described below. […] In parallel, a […]. The test compound was added into the reaction mixture (0.5 mg/mL human liver microsomes; 100 mM potassium phosphate; 5 mM Magnesium chloride) at a final concentration of 1 μM. An aliquot of the reaction mixture (without cofactor) was incubated in a shaking water bath at 37° C. for 3 minutes. […] The samples were then mixed and centrifuged to precipitate microsomal proteins. […] A thermo BDS Hypersil C18 column (30×2.0 mm; 3 μm) was used for chromatography at 300 μL/minute with an aqueous reservoir of 90% water and 10% buffer and an organic reservoir of 90% acetonitrile with 10% buffer (each 25 mM ammonium formate buffer at pH of 3.5). Test compound samples were analyzed by orbitrap. The peak area response ratio to internal standard (PARR) of the compounds at 10, 20, 30, and 60 minutes was compared to the PARR at time 0 to determine the percent of test compound remaining at each timepoint. After the final time point, fluorimetry is used to confirm the addition of NADPH to the reaction mixture. Half-life was normalized of control using internal acceptance criteria.
The mass spectrometry measurements of compound were taken at 0, 10, 20, 30, and 60 minutes after incubation of the compound with human liver microsomes at […] in solution at 37° C.
Intrinsic clearance (CLint) was calculated based upon CLint=k/P, where k is the elimination rate constant and P is the protein concentration in the incubation.

## CC[C@H](C)[C@@H](CC(=O)N[C@@H](Cc1ccc(O)cc1)C(=O)N[C@@H](CC(C)C)C(=O)N[C@@H](CC(=O)O)CC(=O)N[C@@H](CCCCN)C(=O)N[C@@H](CCC(N)=O)C(=O)N[C@@H](C)C(=O)N[C@@H](C)CC(=O)NC(C)(C)C(=O)N[C@@H](CCC(=O)O)C(=O)N[C@H](CC(=O)N[C@H](C(=O)N[C@@H](CC(N)=O)C(=O)N[C@@H](Cc1c[nH]c2ccccc12)C(=O)N[C@H](CC(=O)N[C@@H](CC(C)C)C(=O)N[C@@H](C)C(=O)NCCC(=O)O)CC(C)C)C(C)C)Cc1ccccc1)NC(=O)[C@H](CO)NC(=O)[C@H](Cc1ccc(O)cc1)NC(=O)[C@H](CC(=O)O)NC(=O)[C@H](CO)NC(=O)[C@@H](NC(=O)[C@H](Cc1ccccc1)NC(=O)[C@@H](NC(=O)CNC(=O)[C@H](CCC(=O)O)NC(=O)C(C)(C)NC(=O)[C@@H](N)Cc1ccc(O)cc1)[C@@H](C)O)[C@@H](C)O [compound 2004, YBEGT FTSDY SIYLD KQAAB EFVNW LLAG]
GIP receptor (GIPR)
  Emax: 99.1%
GLP-1 receptor (GLP1R)
  Emax: 2.68%

## CC[C@H](C)[C@@H](CC(=O)N[C@@H](Cc1ccc(O)cc1)C(=O)N[C@@H](CC(C)C)C(=O)N[C@@H](CC(=O)O)C(=O)N[C@@H](CCCCN)CC(=O)N[C@@H](CCC(N)=O)C(=O)N[C@@H](C)C(=O)N[C@@H](C)CC(=O)NC(C)(C)C(=O)N[C@@H](CCC(=O)O)C(=O)N[C@@H](Cc1ccccc1)C(=O)N[C@H](CC(=O)N[C@@H](CC(N)=O)C(=O)N[C@@H](Cc1c[nH]c2ccccc12)C(=O)N[C@H](CC(=O)N[C@@H](CC(C)C)C(=O)N[C@@H](C)C(=O)NCC(=O)O)CC(C)C)C(C)C)NC(=O)[C@H](CO)NC(=O)[C@H](Cc1ccc(O)cc1)NC(=O)[C@H](CC(=O)O)NC(=O)[C@H](CO)NC(=O)[C@@H](NC(=O)[C@H](Cc1ccccc1)NC(=O)[C@@H](NC(=O)CNC(=O)[C@H](CCC(=O)O)NC(=O)C(C)(C)NC(=O)[C@@H](N)Cc1ccc(O)cc1)[C@@H](C)O)[C@@H](C)O [compound 2001, YBEGT FTSDY SIYLD KQAAB EFVNW LLAG]
GIP receptor (GIPR)
  Emax: 16.5%
GLP-1 receptor (GLP1R)
  Emax: 36.7%

## CC[C@H](C)[C@H](NC(=O)[C@H](CO)NC(=O)[C@H](Cc1ccc(O)cc1)NC(=O)[C@H](CC(=O)O)NC(=O)[C@H](CO)NC(=O)[C@@H](NC(=O)[C@H](Cc1ccccc1)NC(=O)[C@@H](NC(=O)CNC(=O)[C@H](CCC(=O)O)NC(=O)C(C)(C)NC(=O)[C@@H](N)Cc1ccc(O)cc1)[C@@H](C)O)[C@@H](C)O)C(=O)N[C@@H](Cc1ccc(O)cc1)C(=O)N[C@@H](CC(C)C)C(=O)N[C@@H](CC(=O)O)C(=O)N[C@H]1CNC[C@@H]1C(=O)N[C@@H](CCC(N)=O)C(=O)N[C@@H](C)C(=O)N[C@H]1CCC[C@@H]1C(=O)NC(C)(C)C(=O)N[C@@H](CCC(=O)O)C(=O)N[C@@H](Cc1ccccc1)C(=O)N[C@H]1CCC[C@@H]1C(=O)N[C@@H](CC(N)=O)C(=O)N[C@@H](Cc1c[nH]c2ccccc12)C(=O)N[C@H]1CCC[C@@H]1C(=O)N[C@@H](CC(C)C)C(=O)N[C@@H](C)C(=O)NCC(N)=O [compound 2008, YBEGT FTSDY SIYLD ZQAXB EFXNW XLAG]
GIP receptor (GIPR)
  Curve Bottom: −0.6
  Curve Top: 82.8
  Hill: 2.32
  Emax: 82.2%
GLP-1 receptor (GLP1R)
  Curve Bottom: 0.9
  Curve Top: 84.4
  Hill: 3.47
  Emax: 84.5%

## CC[C@H](C)[C@H](NC(=O)[C@H](CO)NC(=O)[C@H](Cc1ccc(O)cc1)NC(=O)[C@H](CC(=O)O)NC(=O)[C@H](CO)NC(=O)[C@@H](NC(=O)[C@H](Cc1ccccc1)NC(=O)[C@@H](NC(=O)CNC(=O)[C@H](CCC(=O)O)NC(=O)C(C)(C)NC(=O)[C@@H](N)Cc1ccc(O)cc1)[C@@H](C)O)[C@@H](C)O)C(=O)N[C@@H](Cc1ccc(O)cc1)C(=O)N[C@@H](CC(C)C)C(=O)N[C@@H](CC(=O)O)C(=O)N[C@@H](CCCCN)C(=O)N[C@H]1CCC[C@@H]1C(=O)N[C@@H](C)C(=O)N[C@@H](C)C(=O)NC(C)(C)C(=O)N[C@H]1CCC[C@@H]1C(=O)N[C@@H](Cc1ccccc1)C(=O)N[C@H](C(=O)N[C@H]1CNC[C@@H]1C(=O)N[C@@H](Cc1c[nH]c2ccccc12)C(=O)N[C@@H](CC(C)C)C(=O)N[C@@H](CC(C)C)C(=O)N[C@H]1CCC[C@@H]1C(=O)NCC(N)=O)C(C)C [compound 2010, YBEGT FTSDY SIYLD KXAAB XFVZW LLXG]
[1]; 0 mins., 1 μM, 37° C., pH 7.4
  % of mass remaining in solution: 100%
[1]; plasma (sodium heparin), 15 mins., 1 μM, 37° C., pH 7.4, read-out: % of mass remaining in solution
  remaining at 0.25 h, 1 μM: 96%
[1]; plasma (sodium heparin), 30 mins., 1 μM, 37° C., pH 7.4, read-out: % of mass remaining in solution
  remaining at 0.5 h, 1 μM: 103%
[1]; plasma (sodium heparin), 60 mins., 1 μM, 37° C., pH 7.4, read-out: % of mass remaining in solution
  remaining at 1 h, 1 μM: 99%
[1]; plasma (sodium heparin), 120 mins., 1 μM, 37° C., pH 7.4, read-out: % of mass remaining in solution
  remaining at 2 h, 1 μM: 97%
[1]; read-out: serum-half lives
  half-life: > 2 h
GIP receptor (GIPR)
  Curve Bottom: −0.3
  Curve Top: 85.5
  Hill: 1.59
  Emax: 96.9%
[2]; 0 mins., 0.5 mg/mL human liver microsomes, 1 μM, 1 mM NADPH, 37° C.
  % of mass remaining in solution: 100%
[2]; human, microsomes
  half-life: > 1 h
  microsomal CLint: 11 µL/min/mg
  remaining at 10 min, 1 μM: 98%
  remaining at 20 min, 1 μM: 95%
  remaining at 0.5 h, 1 μM: 87%
  remaining at 1 h, 1 μM: 73%
GLP-1 receptor (GLP1R)
  Curve Bottom: 0.4
  Curve Top: 82.4
  Hill: 2.9
  Emax: 82.1%

## CC[C@H](C)[C@H](NC(=O)[C@H](CO)NC(=O)[C@H](Cc1ccc(O)cc1)NC(=O)[C@H](CC(=O)O)NC(=O)[C@H](CO)NC(=O)[C@@H](NC(=O)[C@H](Cc1ccccc1)NC(=O)[C@@H](NC(=O)CNC(=O)[C@H](CCC(=O)O)NC(=O)C(C)(C)NC(=O)[C@@H](N)Cc1ccc(O)cc1)[C@@H](C)O)[C@@H](C)O)C(=O)N[C@@H](Cc1ccc(O)cc1)C(=O)N[C@H](CC(=O)N[C@@H](CC(=O)O)C(=O)N[C@@H](CCCCN)C(=O)N[C@@H](CCC(N)=O)CC(=O)N[C@@H](C)C(=O)N[C@@H](C)C(=O)NC(C)(C)C(=O)N[C@@H](CCC(=O)O)CC(=O)N[C@@H](Cc1ccccc1)C(=O)N[C@H](C(=O)N[C@@H](CC(N)=O)CC(=O)N[C@@H](Cc1c[nH]c2ccccc12)C(=O)N[C@@H](CC(C)C)C(=O)N[C@@H](CC(C)C)C(=O)N[C@@H](C)CC(=O)NCC(=O)O)C(C)C)CC(C)C [compound 2005, YBEGT FTSDY SIYLD KQAAB EFVNW LLAG]
GIP receptor (GIPR)
  Emax: 99.2%
GLP-1 receptor (GLP1R)
  Emax: 95.7%

Source: patent US9790262B2, “Compositions comprising glucagon analogs and methods of making and using the same” (LONGEVITY BIOTECH, INC., priority 2011, dated 2017)
